Patent US5552382A, “Gramicidin as a spermicide against sexual transmission of HIV” (priority 1994, dated 1996)

Tested on: MT-4 lymphocytes
Conditions: MT-4 cells, 3 days continuous exposure; approximate log10 concentration

gramicidin
CC100 (cytotoxicity): ~10 µg
